Assay: pH measurement of aqueous formulation samples
Type: physicochemical
Description: • (a) 36,100 g of water for injection was weighed into a vessel. 125.82 g of DL-Lactic acid (90.6% purity, parenteral grade) was slowly added and the mixture was stirred until the lactic acid dissolved. 195.3 g of 1-(4-{[4-(dimethylamino)piperidin-1-yl]carbonyl}phenyl)-3-[4-(4,6-dimorpholin-4-yl-1,3,5-triazin-2-yl)phenyl]urea was slowly added and the mixture was stirred until the material dissolved. 1900 g of mannitol powder (parenteral) was gradually added and the mixture was stirred until the material dissolved. Water for injection was added to make the solution up to a total weight of 38,760 g and the solution was stirred for a further 10 minutes. The pH was checked and found to be 3.4 with a solution temperature of 29.3° C. The solution was sterile filtered through an in-line 0.45 μm clarification filter and 0.22 μm filter assembly. This solution was then filled into 50 mL vials with a target fill volume of 20.8 mL for each vial. […]
The pH of the solution in the vial was measured as pH=3.52 at 23.2 degrees ° C.
At the end of the 5 day period the pH of each sample was measured and a visual observation of each sample was made using a light box as described in European Pharmacopoeia Method 2.9.20 (above), inspecting the samples against a black and a white background. […]
At the end of the specified rolling period the pH of each sample was measured and a visual observation of each sample was made using a light box as described in European Pharmacopoeia Method 2.9.20 (above), inspecting the samples against a black and a white background. […]
These samples were visually assessed made using a light box as described in European Pharmacopoeia Method 2.9.20 (above), inspecting the samples against a black and a white background. […] The pH was also measured. […]
These samples were visually assessed using a light box as described in European Pharmacopoeia Method 2.9.20 (above), inspecting the samples against a black and a white background. […] The pH was also measured. […]
The pH of the samples was assessed as follows: […]

- pH after dilution (Investigation 4, orthophosphoric acid samples diluted to 0.1 mg/mL, roller bed overnight): 3.19
- pH Check after 48 hours (Investigation 5, 3 mg/mL in 33.3 mM acetic acid): 3.88
- pH Check after 6 Days (Investigation 5, 4 mg/mL in 33.3 mM acetic acid): 4.07
SMILES: CN(C)C1CCN(C(=O)c2ccc(NC(=O)Nc3ccc(-c4nc(N5CCOCC5)nc(N5CCOCC5)n4)cc3)cc2)CC1 [1-(4-{[4-(Dimethylamino)piperidin-1-yl]carbonyl}phenyl)-3-[4-(4,6-dimorpholin-4-yl-1,3,5-triazin-2-yl)phenyl]urea]

From US10660959B2, “Formulations of a PI3K/mTOR-inhibitor for intravenous administration” (Pfizer Inc., priority 2014, dated 2020)
